Experimental data as given in paper PMC11440776.

Target: tKeima (Montipora sp.) (UniProt Q1JV72)
Experiment: crystal structure

## tKeima (from UniProt Q1JV72 1-222) (natural protein)
  stoichiometry N: 4
